Test results from patent US20100255521A1, “Fluorescent substrates for Detecting organophosphatase enzyme activity” (published 2010).

Target: OPH (Brevundimonas diminuta, UniProt P0A434)
Assay: OPH detection sensitivity and kinetics of OPH mediated hydrolysis (Example 7)
Conditions: 100 μM DEPFMU or 1.2 mM paraoxon, 30 min at 37° C.; assuming 100% purity and activity

Compound	level of reliable detection of OPH per well
CCOP(=O)(OCC)Oc1ccc([N+](=O)[O-])cc1	around 100 fmol
7-diethyl-phospho-6,8-difluoro-4-methylumbelliferyl	1 fmol
